Laboratory results reported in article PMC12279193 (Advanced Science, 2025).

By UniProt entry, the sequences of proteins in these tests, tags left out. Residues count along the entry.
UniProt Q6Q1S2, 19-1356: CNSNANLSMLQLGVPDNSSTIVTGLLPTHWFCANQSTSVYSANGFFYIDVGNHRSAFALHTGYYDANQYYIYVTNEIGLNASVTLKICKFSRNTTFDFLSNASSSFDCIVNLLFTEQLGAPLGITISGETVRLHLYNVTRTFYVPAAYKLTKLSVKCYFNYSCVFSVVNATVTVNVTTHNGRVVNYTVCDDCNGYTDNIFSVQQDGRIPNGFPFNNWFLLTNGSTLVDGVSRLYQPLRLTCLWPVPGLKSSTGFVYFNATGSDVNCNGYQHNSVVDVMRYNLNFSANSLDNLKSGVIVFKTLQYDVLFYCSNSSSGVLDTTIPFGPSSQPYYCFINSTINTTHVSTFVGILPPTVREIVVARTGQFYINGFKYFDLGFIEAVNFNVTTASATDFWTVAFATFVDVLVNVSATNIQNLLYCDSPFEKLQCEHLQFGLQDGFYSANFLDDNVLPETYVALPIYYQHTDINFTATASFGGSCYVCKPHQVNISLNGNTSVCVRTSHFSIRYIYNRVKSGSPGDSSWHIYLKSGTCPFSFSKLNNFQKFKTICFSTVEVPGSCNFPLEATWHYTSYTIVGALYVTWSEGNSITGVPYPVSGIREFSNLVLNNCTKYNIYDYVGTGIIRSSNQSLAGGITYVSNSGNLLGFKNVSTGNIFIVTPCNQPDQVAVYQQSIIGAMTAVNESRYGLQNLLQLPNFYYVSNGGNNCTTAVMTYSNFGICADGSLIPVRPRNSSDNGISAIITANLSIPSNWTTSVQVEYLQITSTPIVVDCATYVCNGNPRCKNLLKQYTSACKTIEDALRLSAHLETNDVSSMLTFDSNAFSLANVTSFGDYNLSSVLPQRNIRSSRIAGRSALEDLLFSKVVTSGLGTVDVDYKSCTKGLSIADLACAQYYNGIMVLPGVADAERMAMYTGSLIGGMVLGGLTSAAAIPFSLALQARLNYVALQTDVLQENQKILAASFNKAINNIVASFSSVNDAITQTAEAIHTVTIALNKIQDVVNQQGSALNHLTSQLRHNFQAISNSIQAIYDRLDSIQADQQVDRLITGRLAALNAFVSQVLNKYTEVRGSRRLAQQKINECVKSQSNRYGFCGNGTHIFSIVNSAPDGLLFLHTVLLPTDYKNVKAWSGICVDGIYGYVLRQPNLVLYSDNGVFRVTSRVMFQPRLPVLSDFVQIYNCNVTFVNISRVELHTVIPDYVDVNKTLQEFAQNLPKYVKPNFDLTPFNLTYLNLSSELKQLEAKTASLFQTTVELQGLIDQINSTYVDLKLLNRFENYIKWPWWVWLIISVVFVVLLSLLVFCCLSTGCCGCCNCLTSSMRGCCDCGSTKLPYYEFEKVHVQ
UniProt P15423, 16-1115: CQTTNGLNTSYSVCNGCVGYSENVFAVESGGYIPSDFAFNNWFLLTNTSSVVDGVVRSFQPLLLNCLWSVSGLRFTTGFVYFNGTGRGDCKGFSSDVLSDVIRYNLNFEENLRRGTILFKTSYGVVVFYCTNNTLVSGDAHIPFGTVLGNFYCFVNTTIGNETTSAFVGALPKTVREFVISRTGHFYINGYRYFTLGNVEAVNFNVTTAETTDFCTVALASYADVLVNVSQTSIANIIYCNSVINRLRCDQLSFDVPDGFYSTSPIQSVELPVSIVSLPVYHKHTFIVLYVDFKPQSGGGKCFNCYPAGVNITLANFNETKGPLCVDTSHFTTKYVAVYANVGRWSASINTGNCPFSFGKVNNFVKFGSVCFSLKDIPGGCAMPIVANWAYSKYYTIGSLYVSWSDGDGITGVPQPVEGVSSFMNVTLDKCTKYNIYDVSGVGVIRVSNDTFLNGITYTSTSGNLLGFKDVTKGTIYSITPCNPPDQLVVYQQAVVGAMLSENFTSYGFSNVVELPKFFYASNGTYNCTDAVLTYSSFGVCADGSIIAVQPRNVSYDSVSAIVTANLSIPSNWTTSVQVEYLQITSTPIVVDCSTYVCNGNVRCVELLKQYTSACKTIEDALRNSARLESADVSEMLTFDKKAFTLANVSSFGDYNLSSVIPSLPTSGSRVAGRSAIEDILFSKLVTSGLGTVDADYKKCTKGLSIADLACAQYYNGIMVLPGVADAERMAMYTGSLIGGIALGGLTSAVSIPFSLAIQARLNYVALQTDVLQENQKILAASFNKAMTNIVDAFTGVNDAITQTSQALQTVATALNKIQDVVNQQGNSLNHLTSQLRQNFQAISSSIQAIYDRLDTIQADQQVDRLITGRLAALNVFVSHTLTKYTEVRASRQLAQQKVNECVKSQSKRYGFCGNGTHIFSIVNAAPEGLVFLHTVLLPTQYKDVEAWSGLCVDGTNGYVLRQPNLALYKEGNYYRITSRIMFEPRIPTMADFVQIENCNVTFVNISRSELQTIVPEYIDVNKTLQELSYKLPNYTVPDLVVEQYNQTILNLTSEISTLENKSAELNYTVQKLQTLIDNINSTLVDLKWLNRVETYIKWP
UniProt Q5MQD0, 13-1300: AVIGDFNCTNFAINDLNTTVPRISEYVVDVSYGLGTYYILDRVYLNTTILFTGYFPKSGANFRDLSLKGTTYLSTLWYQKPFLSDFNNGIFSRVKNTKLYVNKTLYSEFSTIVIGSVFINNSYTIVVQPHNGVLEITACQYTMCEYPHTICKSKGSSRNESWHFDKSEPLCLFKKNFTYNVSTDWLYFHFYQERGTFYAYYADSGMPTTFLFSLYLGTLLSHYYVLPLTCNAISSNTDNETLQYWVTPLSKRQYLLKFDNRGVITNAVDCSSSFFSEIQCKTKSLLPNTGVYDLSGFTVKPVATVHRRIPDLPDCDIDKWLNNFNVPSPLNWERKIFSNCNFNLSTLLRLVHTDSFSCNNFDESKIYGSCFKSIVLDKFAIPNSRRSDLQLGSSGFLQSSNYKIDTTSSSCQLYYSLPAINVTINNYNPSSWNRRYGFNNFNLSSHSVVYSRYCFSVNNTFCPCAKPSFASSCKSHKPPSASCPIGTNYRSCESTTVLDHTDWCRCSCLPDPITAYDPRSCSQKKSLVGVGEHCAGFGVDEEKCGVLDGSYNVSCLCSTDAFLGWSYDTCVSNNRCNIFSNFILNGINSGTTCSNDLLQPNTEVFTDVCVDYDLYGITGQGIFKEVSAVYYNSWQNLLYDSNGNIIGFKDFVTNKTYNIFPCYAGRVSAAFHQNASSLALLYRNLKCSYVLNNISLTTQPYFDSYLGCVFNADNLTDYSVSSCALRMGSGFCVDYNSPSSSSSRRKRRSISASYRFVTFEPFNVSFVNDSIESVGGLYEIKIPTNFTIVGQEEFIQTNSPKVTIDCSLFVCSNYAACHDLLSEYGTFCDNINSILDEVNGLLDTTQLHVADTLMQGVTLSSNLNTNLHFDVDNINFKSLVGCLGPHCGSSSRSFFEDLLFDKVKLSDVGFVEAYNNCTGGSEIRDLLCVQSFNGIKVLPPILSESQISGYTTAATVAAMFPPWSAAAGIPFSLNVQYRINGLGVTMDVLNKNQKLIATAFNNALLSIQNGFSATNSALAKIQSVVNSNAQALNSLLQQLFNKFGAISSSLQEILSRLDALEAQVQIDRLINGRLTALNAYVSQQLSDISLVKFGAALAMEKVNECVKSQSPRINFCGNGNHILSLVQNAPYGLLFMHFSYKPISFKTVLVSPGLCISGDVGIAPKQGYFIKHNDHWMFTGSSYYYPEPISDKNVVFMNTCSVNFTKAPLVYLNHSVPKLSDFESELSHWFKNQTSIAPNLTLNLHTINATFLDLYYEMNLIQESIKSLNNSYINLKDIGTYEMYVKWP

Legend:
Details in all cases: PBS, 0.005% P20, pH 7.4, 1% DMSO
HCoV-NL63 spike protein = biological target: T1, HCoV-NL63 spike protein (Human coronavirus NL63, UniProt Q6Q1S2)
T1 construct: gene S

HCoV-229E spike protein = biological target: T2, HCoV-229E spike protein (Human coronavirus 229E, UniProt P15423); format: binding
T2 construct: gene S

[1] = biological target: HCoV-HKU1 S-trimer protein (Human coronavirus HKU1 (isolate N1), UniProt Q5MQD0)

## CN(/N=C/c1ccccc1C(=O)O)c1nc(-c2ccccc2Cl)cs1 [S416]
HCoV-NL63 spike protein
  K D: binding affinity of S416 for the spike proteins of the six human‐infecting coronaviruses
HCoV-229E spike protein
  K D: binding affinity of S416 for the spike proteins of the six human‐infecting coronaviruses
[1]
  K D: binding affinity of S416 for the spike proteins of the six human‐infecting coronaviruses
